The list shows a part of the results, in another mix than the full data. Inconclusive results are not listed. Active and inactive are the calls of the source. The call rests on the fitted dose curve; in most records, active means well fitted inhibition curve with a large enough effect; inconclusive means small, poorly fitted or top-dose-only effect; inactive means no such curve, though single readings can be large or run the other way.
These compounds were tested against Bromodomain adjacent to zinc finger domain protein 2B (Homo sapiens) (UniProt Q9UIF8) (assay: qHTS Assay for Inhibitors of BAZ2B). Conditions: AlphaScreen BAZ2B-H3K14Ac peptide displacement; series mostly up to 114 µM; activity change, negative = inhibition: at the top concentration.
Further: nearly all actives have a fitted effect of over 60% in size.
On the % scale 0 is the no-effect control and ±100 the full control effect; potency means the concentration at half of the fitted maximal effect.

Chains of the proteins cited; added tags and fusions are not shown. Lines headed by an entry give the natural chain unless they say otherwise; changes in a name come on top.
UniProt Q9UIF8: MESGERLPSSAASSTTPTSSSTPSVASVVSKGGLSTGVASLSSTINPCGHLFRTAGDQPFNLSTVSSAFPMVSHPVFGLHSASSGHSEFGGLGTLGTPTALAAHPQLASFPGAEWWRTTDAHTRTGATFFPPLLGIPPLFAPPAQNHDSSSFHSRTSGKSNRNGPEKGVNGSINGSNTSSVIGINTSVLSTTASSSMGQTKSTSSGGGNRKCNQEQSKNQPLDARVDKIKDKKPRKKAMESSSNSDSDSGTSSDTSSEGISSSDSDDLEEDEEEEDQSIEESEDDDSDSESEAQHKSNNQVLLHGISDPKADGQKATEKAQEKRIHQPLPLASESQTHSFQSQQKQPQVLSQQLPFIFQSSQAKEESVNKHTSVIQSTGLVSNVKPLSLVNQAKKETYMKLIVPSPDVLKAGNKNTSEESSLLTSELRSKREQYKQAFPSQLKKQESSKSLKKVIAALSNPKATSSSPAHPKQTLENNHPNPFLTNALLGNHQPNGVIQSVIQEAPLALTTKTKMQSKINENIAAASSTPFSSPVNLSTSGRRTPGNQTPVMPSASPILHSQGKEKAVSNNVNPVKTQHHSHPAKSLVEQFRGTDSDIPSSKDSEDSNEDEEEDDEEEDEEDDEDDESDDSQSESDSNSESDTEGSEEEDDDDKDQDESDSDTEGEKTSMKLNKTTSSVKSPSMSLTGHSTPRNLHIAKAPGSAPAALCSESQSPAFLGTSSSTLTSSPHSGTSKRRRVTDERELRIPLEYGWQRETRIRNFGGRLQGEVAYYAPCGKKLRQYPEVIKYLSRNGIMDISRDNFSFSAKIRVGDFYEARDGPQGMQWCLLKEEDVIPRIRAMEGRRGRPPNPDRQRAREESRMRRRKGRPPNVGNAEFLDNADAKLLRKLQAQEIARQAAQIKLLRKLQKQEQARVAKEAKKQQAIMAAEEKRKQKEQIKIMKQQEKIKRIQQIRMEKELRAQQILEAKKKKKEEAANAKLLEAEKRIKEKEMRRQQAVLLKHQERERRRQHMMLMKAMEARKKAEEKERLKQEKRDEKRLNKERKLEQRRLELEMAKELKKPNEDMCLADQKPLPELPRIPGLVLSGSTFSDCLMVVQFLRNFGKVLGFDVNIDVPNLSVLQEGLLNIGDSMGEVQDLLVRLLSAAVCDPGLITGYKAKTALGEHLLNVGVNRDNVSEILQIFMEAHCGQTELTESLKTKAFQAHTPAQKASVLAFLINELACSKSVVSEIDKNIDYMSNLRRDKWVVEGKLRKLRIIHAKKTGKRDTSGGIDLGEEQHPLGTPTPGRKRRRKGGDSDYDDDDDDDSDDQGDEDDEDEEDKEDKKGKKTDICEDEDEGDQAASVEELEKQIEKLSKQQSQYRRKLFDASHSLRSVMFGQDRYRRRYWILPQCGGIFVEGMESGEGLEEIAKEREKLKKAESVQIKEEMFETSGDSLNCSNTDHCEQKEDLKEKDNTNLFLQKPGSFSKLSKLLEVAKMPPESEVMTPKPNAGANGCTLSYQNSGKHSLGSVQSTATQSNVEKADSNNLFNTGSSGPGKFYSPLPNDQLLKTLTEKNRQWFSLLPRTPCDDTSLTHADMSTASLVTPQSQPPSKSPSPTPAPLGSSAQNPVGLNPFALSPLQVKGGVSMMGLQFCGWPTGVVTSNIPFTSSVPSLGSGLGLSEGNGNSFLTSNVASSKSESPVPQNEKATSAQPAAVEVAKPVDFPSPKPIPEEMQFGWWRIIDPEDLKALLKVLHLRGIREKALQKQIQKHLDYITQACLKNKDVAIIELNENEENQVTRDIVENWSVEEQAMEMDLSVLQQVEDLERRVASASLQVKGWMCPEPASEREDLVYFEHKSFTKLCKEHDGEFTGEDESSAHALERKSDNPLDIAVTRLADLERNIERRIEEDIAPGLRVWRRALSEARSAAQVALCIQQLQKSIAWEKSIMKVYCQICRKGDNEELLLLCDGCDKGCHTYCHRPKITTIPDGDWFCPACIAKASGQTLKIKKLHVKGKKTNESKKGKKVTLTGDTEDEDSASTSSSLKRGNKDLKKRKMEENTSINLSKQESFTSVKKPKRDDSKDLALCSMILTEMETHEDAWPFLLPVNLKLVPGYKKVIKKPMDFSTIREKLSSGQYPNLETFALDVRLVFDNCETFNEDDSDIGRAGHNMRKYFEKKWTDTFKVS

Row | SMILES | Potency | activity change, negative = inhibition
1 | Clc1n[nH]nc1-c1nn[nH][15n]1 | active: 50.1 µM | 
2 | COc1ccccc1CNC(=O)COC(=O)C(O)(c1ccccc1)c1ccccc1 |  | inactive: 11.9%
3 | O=[As](O)(c1ccccc1Br)c1ccccc1Br |  | inactive: -0.0992%
4 | CC(C)/C=N\N=C(\N)N[N+](=O)[O-] |  | inactive: -27.4%
5 | CN(C(=O)Cc1ccc(Cl)c(Cl)c1)[C@@H]1CCCC[C@H]1N1CCCC1 |  | inactive: -21.9%
6 | CC1CCC(C(C)C)C(OP(=O)(Nc2ccccn2)c2ccccc2)C1 (centres undefined) |  | inactive: -35.3%
7 | Cc1ccc(C(=O)OC2CN3CCC2CC3)cc1 (centres undefined) |  | inactive: -3.02%
8 | Cc1nn(-c2ccccc2)c2c1P(=O)(N1CCOCC1)N(C)C(c1ccccc1)=N2 (centres undefined) |  | inactive: 7.61%
9 | O=C(/C=C/c1ccccc1)OC1CN2CCC1CC2 (centres undefined) |  | inactive: -10.4%
10 | CN(C)C1(CNC(=O)c2ccc(S(C)(=O)=O)cc2)CCCCC1 |  | inactive: 1.3%
11 | O=P1(Nc2ncccn2)COc2ccccc2OC1 |  | inactive: 8.34%
12 | O=P1(Nc2ccc(Br)cn2)COc2ccccc2OC1 |  | inactive: -19.6%
13 | NS(=O)(=O)c1cccc(NC(=O)COC(=O)C(O)(c2ccccc2)c2ccccc2)c1 |  | inactive: 0.777%
14 | Cc1ccc(OCC(=O)OC2CN3CCC2CC3)cc1 (centres undefined) |  | inactive: -3.07%
15 | O=[As](O)(c1cccs1)c1cccs1 |  | inactive: -10.7%
16 | Nc1cccc([As](=O)(O)c2ccccc2)c1 |  | inactive: -14.8%
17 | CS(=O)(=O)c1cc([N+](=O)[O-])c2no[n+]([O-])c2c1 | active: 17.8 µM | 
18 | O=P(Nc1nccs1)(c1ccccc1)c1nc2ccccc2s1 (centres undefined) | active: 5.62 µM | 
19 | O=P(Nc1nccs1)(Oc1ccccc1)Oc1ccccc1 |  | inactive: -28%
20 | CCOP1(=S)c2c(C)nn(CCC#N)c2N=C(c2ccccc2F)N1C (centres undefined) |  | inactive: -0.263%
21 | Nc1ccccc1[As](=O)(O)c1ccccc1 |  | inactive: -2.21%
22 | O=C(O)COc1ccc([As](=O)(O)O)cc1[N+](=O)[O-] |  | inactive: 9.16%
23 | NC(=O)Nc1ccc([As](=O)(O)O)cc1 |  | inactive: -0.414%
24 | O=[N+]([O-])c1ccc2c(c1)nnn2O |  | inactive: -38.4%
25 | CCOP1(=S)c2c(C)nn(CCC#N)c2N=C(c2ccc(F)cc2)N1C (centres undefined) |  | inactive: -19.8%
26 | CN(C(=O)Cc1ccccc1)[C@@H]1CC[C@]2(CCCO2)C[C@H]1N1CCCC1 |  | inactive: -0.668%

Row | SMILES | Potency | activity change, negative = inhibition
27 | N#CCCN(C(=O)COC(=O)C(O)(c1ccccc1)c1ccccc1)c1ccc(F)cc1 |  | inactive: 11%
28 | CS(=O)(=O)c1ccc(Cl)c(NC(=O)COC(=O)C(O)(c2ccccc2)c2ccccc2)c1 |  | inactive: -19.6%
29 | COc1cc(C(=O)NCC2(N3CCOCC3)CCCCC2)cc(Cl)c1OC(C)C |  | inactive: -5.16%
30 | O=[As](O)(O)c1cccnc1 |  | inactive: -28.5%
31 | O=C(OC1CN2CCC1CC2)c1ccc(Cl)cc1 (centres undefined) |  | inactive: -1.91%
32 | O=[As](O)(c1cccc(O)c1)c1cccc(O)c1 |  | inactive: -1.15%
33 | Cc1cccc(OCC(=O)OC2CN3CCC2CC3)c1 (centres undefined) |  | inactive: -0.985%
34 | CCCOP(=S)(Nc1nc(N)cc(=O)[nH]1)OCCC |  | inactive: -7.54%
35 | Cc1ccc(NCCc2c([N+](=O)[O-])cc([N+](=O)[O-])cc2[N+](=O)[O-])cc1 | active: 12.6 µM | 
36 | Nc1cccc2c([As](=O)(O)O)cccc12 |  | inactive: -4.81%
37 | CCOP(=O)(Nc1cccc2ccccc12)OCC |  | inactive: -16.4%
38 | COc1cc(C2NCCC3(OCCO3)C2(C)C)cc(OC)c1OC (centres undefined) |  | inactive: 2.28%
39 | CC(C)(C)C(=O)NC(Sc1ccccc1)C(Cl)(Cl)Cl (centres undefined) |  | inactive: 54.2%
40 | CC(=O)c1ccc(N2CC2c2ccncc2)cc1 (centres undefined) |  | inactive: -2.25%
41 | C[C@@H]1C=CCP(=O)(Oc2ccccc2)O1 (some centres undefined) |  | inactive: -11.6%
42 | C[C@H]1OP(=O)(Oc2ccccc2)C[C@@H]2O[C@@H]21 (some centres undefined) |  | inactive: 3.25%
43 | Cc1ccccc1CN(C)C(=O)COC(=O)C(O)(c1ccccc1)c1ccccc1 |  | inactive: 0.417%
44 | CC(=O)Nc1ccc([As](=O)(O)O)c(O)c1 |  | inactive: -4.68%
45 | CCNC(=S)/N=C(\N)N[N+](=O)[O-] |  | inactive: -30.2%
46 | O=C(NC1CCS(=O)(=O)C1)NP(=S)(Oc1ccccc1)Oc1ccccc1 (centres undefined) |  | inactive: -6.26%
47 | Cc1ccc(NP(=O)(Oc2cccc(C)c2)Oc2cccc(C)c2)nc1 |  | inactive: 3.72%
48 | CCOC(=O)NC(Sc1ccccc1)C(Cl)(Cl)Cl (centres undefined) |  | inactive: 6.14% [at 57.1 µM]
49 | c1ccc(-c2nn[nH]n2)c(-c2nn[nH]n2)c1 | active: 5.01 µM | 
50 | CC(=O)NC(SC(=S)N(CC(C)C)CC(C)C)C(Cl)(Cl)Cl (centres undefined) |  | inactive: -35.6%
51 | Cc1ccc(OP(=O)(Nc2ccccn2)Oc2ccc(C)cc2)cc1 |  | inactive: -6.18%
52 | COC(=O)c1cc2c(s1)N=C(c1ccccc1)N(C)P2(=O)N1CCOCC1 (centres undefined) |  | inactive: 11.9%

Row | SMILES | Potency | activity change, negative = inhibition
53 | CCC(=O)N1C2C3N(C(=O)CC)C1C1N(C(=O)CC)C(C(N1C(=O)CC)N3C(=O)CC)N2C(=O)CC |  | inactive: 3.52%
54 | O=C(OC1CN2CCC1CC2)c1ccccc1 (centres undefined) |  | inactive: 21.4%
55 | CN(C)C(=O)Oc1noc2ccccc12 |  | inactive: 0.0091%
56 | Cc1ccccc1OP(=O)(Nc1ccccn1)Oc1ccccc1C |  | inactive: -5.4%
57 | O=P(Nc1ccccn1)(c1ccc(Br)cc1)c1ccc(Br)cc1 |  | inactive: -13.6%
58 | CN(C)C1(CNC(=O)c2ccc(Cl)c(S(N)(=O)=O)c2)CCCCC1 |  | inactive: -1.97%
59 | C[C@H]1OP(=O)(Oc2ccccc2)[C@H](O)[C@H](O)[C@H]1N=[N+]=[N-] (some centres undefined) |  | inactive: -18.4%
60 | O=P(Nc1nc2ccccc2s1)(c1ccccc1)c1ccccc1 |  | inactive: -11.7%
61 | CC(=O)NC(SC(=S)N(C)C)C(Cl)(Cl)Cl (centres undefined) |  | inactive: -24.3%
62 | O=[N+]([O-])c1ncn(CCn2cnc([N+](=O)[O-])n2)n1 |  | inactive: 0.922%
63 | O=[As](O)(c1ccccc1)c1ccc(O)cc1 |  | inactive: -16%
64 | Nc1ccc([As](=O)(O)c2ccc([N+](=O)[O-])cc2)cc1 |  | inactive: -0.386%
65 | O=C(OC1CN2CCC1CC2)c1cccc(Cl)c1 (centres undefined) |  | inactive: -22.3%
66 | CC(C)C(=O)NC(Sc1ccccc1)C(Cl)(Cl)Cl (centres undefined) |  | inactive: -0.762%
67 | O=P(Nc1nccs1)(c1ccccc1)c1ccccc1 |  | inactive: 8.65%
68 | c1nnnn1CCn1cnnn1 |  | inactive: -6.73%
69 | COc1ccc(C2=NCC(CBr)S2)cc1 (centres undefined) |  | inactive: -17.1%
70 | O=[N+]([O-])c1cccc2n[nH]nc12 |  | inactive: 10.1%
71 | CC(=O)N1C2C3N(C(C)=O)C1C1N(C(C)=O)C(C(N1C(C)=O)N3C(C)=O)N2C(C)=O |  | inactive: 4.74%
72 | CCc1nc2c(n1)c1c(non1O)c1c2no[n+]1[O-] |  | inactive: 3.35%
73 | O=[N+]([O-])c1cc([N+](=O)[O-])c(CCNc2ccccc2)c([N+](=O)[O-])c1 | active: 5.62 µM | 
74 | Cc1ccc(NP(=O)(Oc2ccccc2)Oc2ccccc2)nc1 |  | inactive: 0.963%
75 | Nc1ccc([As](=O)(O)c2ccc(N)cc2)cc1 |  | inactive: 3.44%
76 | CCN(/C(=N/P(=O)(N1CCOCC1)N1CCOCC1)N1CCOCC1)c1ccc(OC)cc1 |  | inactive: -1.35%
77 | CN(C)C(=O)OCCc1n(C)cc[n+]1C |  | inactive: -5.41%
78 | CC(C)=N/N=C(\N)N[N+](=O)[O-] |  | inactive: -6.42%

Row | SMILES | Potency | activity change, negative = inhibition
79 | CC1CCN(C(=O)Oc2c(Cl)cc(Cl)c3cccnc23)CC1 |  | inactive: 1.2% [at 57.1 µM]
80 | O=C(Nc1cc([As](=O)(O)O)ccc1O)c1ccccc1 |  | inactive: -14%
81 | CC(C)(C)C(=O)NC(Sc1ccncn1)C(Cl)(Cl)Cl (centres undefined) | active: 50.1 µM | 
82 | O=[N+]([O-])c1ncn(CCn2ncnc2[N+](=O)[O-])n1 |  | inactive: 0.284%
83 | O=[N+]([O-])c1cccc(NC2=NCC(CBr)S2)c1 (centres undefined) |  | inactive: -35.1%
84 | O=C(O)CNc1ccc([As](=O)(O)O)cc1 |  | inactive: -9.2%
85 | O=C(O)c1ccccc1[As](=O)(O)O |  | inactive: -17.8%
86 | CC(=O)Nc1ccc([As](=O)(O)O)cc1 |  | inactive: -10.4%
87 | O=P(Nc1nc2ccc(Cl)cc2s1)(c1ccccc1)c1ccccc1 |  | inactive: -23.4%
88 | Cc1ccc(NP(=O)(Oc2ccccc2F)Oc2ccccc2F)nc1 |  | inactive: -17.9%
89 | CCOP(=O)(Nc1ccccc1)OCC | inactive | 
90 | Cc1cc(SC(NC(=O)c2ccc(F)cc2)C(Cl)(Cl)Cl)ncn1 (centres undefined) | active: 50.1 µM | 
91 | O=[N+]([O-])c1cc([N+](=O)[O-])c(CCN2CCOCC2)c([N+](=O)[O-])c1 | active: 39.8 µM | 
92 | CCN(N=Nc1nonc1N)c1nonc1N |  | inactive: 2.31%
93 | Nc1cccc2ccc([As](=O)(O)O)cc12 |  | inactive: -33.5%
94 | NC(=O)c1cc([N+](=O)[O-])cc([N+](=O)[O-])c1N |  | inactive: -5.19%
95 | CC1=NCCc2c1[nH]c1ccccc21 | active: 35.5 µM | 
96 | CN(C(=O)Cc1ccc(Cl)c(Cl)c1)[C@H]1CCCC[C@H]1N1CCCC1 |  | inactive: 5.2%
97 | Cc1ccc(OP(=O)(Nc2nccs2)Oc2ccc(C)cc2)cc1 |  | inactive: -12.4%
98 | COc1ccccc1OP(=O)(Nc1ccc(C)cn1)Oc1ccccc1OC |  | inactive: 9.33%
99 | Clc1ccc(Cl)c(NC2=NCC(CBr)S2)c1 (centres undefined) |  | inactive: 2.43%
100 | CN1CCCC(OC(=O)C(c2ccccc2)c2ccccc2)C1 (centres undefined) |  | inactive: 9.22%
101 | CC(C)CC(=O)NC(Sc1ccc(Cl)cc1)C(Cl)(Cl)Cl (centres undefined) |  | inactive: 4.66%
102 | Nc1cc(N)c2nonc2c1[N+](=O)[O-] |  | inactive: -18.9%
103 | O=C(NC(Sc1ccncn1)C(Cl)(Cl)Cl)c1ccccc1 (centres undefined) | active: 50.1 µM | 
104 | Oc1ccccc1CNc1ccccn1 |  | inactive: -9.94%

Reference: PubChem BioAssay AID504333 (National Center for Advancing Translational Sciences (NCATS), 2011)
